Results reported in US20240238327A1, “PHARMACEUTICAL COMPOSITION COMPRISING GAMMA-CYCLODEXTRIN POLYMER AND USES THEREOF” (priority 2021, published 2024).

What was measured:
[1] = tested on: whole blood from wild-type C57/BL6 mice; test: hemolytic activity; assay type: cell-based; conditions: for hemolytic activity: monomers, 50 mg/ml in PBS, 37° C., 1 hour
[2] = tested on: Raw 264.7 cells; test: cytotoxicity (CCK-8 cell viability); assay type: cell-based; conditions: 20 mg/mL; compared to alpha- and beta-cyclodextrins, regardless of molecular weight

Row | Substance | hemolytic activity [1] | cytotoxicity (in words) [2] | hemolytic activity (in words) ([1]; 50 mg/ml, compared to alpha- and beta-cyclodextrins, regardless of molecular weight)
1 | hydroxypropyl-alpha-cyclodextrin | 93.5% |  | 
2 | hydroxypropyl-gamma-cyclodextrin | 1.6% | significantly low cytotoxicity | significantly low hemolytic activities
